Results on 1 substance are retold here after patent publication US20260226128A1, “Capped Peptides and Methods for Using the Same” (The Board of Trustees of the Leland Stanford Junior …, priority 2023, published 2026).

The nature of this series: Half-life of peptides incubated in mouse plasma, levels by LC-MS. As to conditions: 10 µM peptide, 37° C. As to the method:
FIG. 4. […] (A) Schematic and annotation of the primary amino acid sequence for full-length mouse TAC1 preproprotein and its cleavage products. […] For (B), N=2 per concentration; for (C), N=3 per condition. For (B,C), data are shown as means±SEM. * P<0.05, ** P<0.01 versus control by Student's t-test.
Half-life calculations of CAP-TAC1 in plasma. 10 µM of either synthetic CAP-TAC1 or SP was incubated with 100 μl of mouse plasma. Samples were incubated at 37° C. for 0, 10, 30, 60, or 90 minutes (N=3 for each time point). At the indicated time point, 1 μl of HALT protease inhibitor was immediately added, and plasma was boiled and prepared using the peptidomics workflow described above. […] Half-lives were calculated using an exponential decay fit.

Regarding substance P [reference compound], the “peptide level in mouse plasma after 90 min” value (90 min) was “undetectable”. The “t1/2 of degradation in mouse plasma” value (exponential decay fit) amounted to 8.4 min.
